Tested on: human xenografts in nude mice, such as MX-1
Conditions: mouse, in vivo

**Q.** Which “Therapeutic dose regimen for Q2D 6 hr-iv infusion” value does the source give for `C/C1=C/CC(/C(C)=C/c2csc(C)n2)OC(=O)C[C@H](O)C(C)(C)C(=O)[C@H](C)[C@@H](O)[C@@H](C)CCC1` (stereo partly shown) [Compound 1, 12,13-desoxyepothilone B, reference compound] here?
**A.** Its value is 25 to 30 mg/kg.

Reference: US7875638B2, “Synthesis of epothilones, intermediates thereto, analogues and uses thereof” (Sloan-Kettering Institute for Cancer Research, priority 2002, dated 2011)
